Yeast mating assay B: variants of the scFv Ab-14

The measurements come from Li et al. 2023 (doi:10.1038/s41467-023-39022-2) through the FLAb antibody collection.

The target is the same throughout: PDVDLGDISGINAS, from the HR2 region of SARS-CoV-2 spike.

The variants keep the heavy chain, the linker and the frameworks of Ab-14 (scFv order VH, a (GGGGS)3 linker, VL).
VH: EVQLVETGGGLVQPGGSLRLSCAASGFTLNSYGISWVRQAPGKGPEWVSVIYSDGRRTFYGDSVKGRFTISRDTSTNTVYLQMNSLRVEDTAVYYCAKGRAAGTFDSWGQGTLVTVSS
VL: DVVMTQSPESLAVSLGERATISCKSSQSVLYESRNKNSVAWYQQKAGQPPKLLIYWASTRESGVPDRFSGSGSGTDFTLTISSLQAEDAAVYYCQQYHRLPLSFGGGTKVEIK

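Phage display of a naive human antibody library on the peptide gave the parent. These sequences belong to a second round, designed from the earlier measurements on random variants of the parent. Group labels follow the data file (Ctrl: baseline library sampled from a position-specific scoring matrix, with some repeated check sequences; En: ensemble of fine-tuned language models; GP: Gaussian process model; HC: hill climbing; Gen: genetic algorithm; Gibbs: Gibbs sampling; a sequence that several methods proposed may carry one label only). The assay is AlphaSeq: two haploid yeast populations carry antibody and antigen on their surface. Mating (16 h, 30 °C) was followed by selection of diploids and sequencing of their barcodes. Read counts were normalised to the haploid input and turned into Kd by a linear fit to BCL2-family pairs of known affinity, for each replicate. Each pool was mated in six replicate cultures.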

The parent's light chain CDRs are KSSQSVLYESRNKNSVA, WASTRES, QQYHRLPLS; each variant's own CDRs replace them letter for letter. This list holds designs with more than six substitutions. Scale: log10 of Kd in nM, estimated from mating counts; low values are strong binders. A mean of the replicates is given; it leaves out those without a signal.

CDR-L1,CDR-L2,CDR-L3,group,mean log10 Kd (nM),seen in
KLQWYPLEIRDTGSAVA,EAATKYN,QQYMRLPLM,En_Gibbs,1.58,1/6
HMSAITLGGMRARNSVA,QMTTREN,QQYDHLPLS,En_Gen,0.77,6/6
KLSMSEDYESRMCNSVA,EASQREE,QQYHRLPLS,GP_Gibbs,0.55,6/6
NLSIQCQHQNMSANAVA,QTEIRCV,QQYAQLPLA,En_Gibbs,2.46,6/6
MLQIEPNGYMKMRSNVA,DGSLVRM,QQYARLPLM,En_Gibbs,1.55,6/6
KISQSWLYESRNINNVA,SCSQRES,QQYHRLPLS,GP_Gibbs,1.23,6/6
MISMEEAPASQNASSIA,QGGLRAE,QQYNRLPLC,En_Gibbs,0.84,6/6
QLYEMNYELSGKTHSVA,DNSTRGD,QQYFRLPLE,En_Gen,1.32,6/6
KLRESIHVETKQKNNVA,DNSTRES,QDYHRLPLS,En_HC,2.29,3/6
KLTMMYQHTSRNKNNIA,ERSTREE,QQYHHLPLS,En_HC,1.15,6/6
KLPLATMQESVSKNNVA,ELSTRGS,QQYHRLPLS,En_HC,0.87,6/6
KLSGSMLYQSRNKNNVA,EASQREQ,QSYHRLPLS,GP_Gibbs,0.10,6/6
HISPLFMVESRLKNSVA,QTSTRES,QQYDRLPLS,En_HC,0.19,6/6
KISISYLGEKRNKNSVA,EASTRMS,QQYHRLPLS,GP_HC,0.45,6/6
KLSMSVRMESFVKDNVA,ENSTREA,QDYNRLPLS,En_HC,4.66,1/6
KSSQSVEYESENKNSVA,KVDTREI,QQAHRLPLS,Ctrl,1.95,1/6
KLNEDVGNHTHDQKNIA,DESRVDR,QQYAHLPLS,En_Gibbs,1.48,6/6
KIGHGVTGTSRKGNSVA,QAETRVD,QQYHRLPLM,En_HC,0.16,6/6
TLTQSHGMESHNKNSVA,DLSTRGS,QQYHRLPLS,En_HC,0.45,6/6
KLTQTMRFEQKKKNNIA,EVSERSK,QQYFRLPLA,En_Gen,1.21,6/6
HIQSNMFGFGGVANNVA,QVATKMV,QQYSKLPLM,En_Gibbs,0.53,6/6
NLVSKADYMDSERQNIA,NMDQRNT,QQYFHLPLT,En_Gibbs,0.73,6/6
RLGMNFTWPGNARQNVA,EIQKAID,QQYAHLPLS,En_Gibbs,1.51,6/6
KLSQWQWGEDRNKNSVA,SASTRCS,QQYHRLPLS,GP_Gibbs,0.10,6/6
MFSQLTYTGSRTRNAVA,QASTREN,QQYHHLPLA,En_HC,0.96,6/6
ALSQSVGGESRNPNSVA,HASTRER,QQYHRLPLS,GP_Gibbs,0.58,6/6
KLSMSYRFETEEKNSIA,ELVTRMK,QQYHRLPLS,En_HC,1.00,6/6
NLYQSMNFLGRVMNSIA,DANTLPD,QQYHRLPLS,En_HC,1.51,6/6
QLSSITGHQSMIKNNVA,EMETREN,QQYDRLPLS,En_Gen,0.57,6/6
MVTQMAMTGMTNKRSVA,NAETREN,QQYHRLPLI,En_Gen,0.51,6/6
MFSQLVMTGSRTKNAVA,QASTREN,QQYHRLPIS,En_HC,0.41,6/6
TISQMTSLFSMSINNVA,EVSTREQ,QQYDRLPLM,En_Gen,0.60,6/6
KLSQQMLYEERNSNNVA,HASHRES,QQYHRLPLS,GP_Gibbs,-0.31,6/6
IVSQLMLWGLHAKNSIA,EAVTRYN,QQYDRLPLI,En_Gen,2.33,1/6
WLSQSVELQSRNKNAVA,SASTRES,QQYHRLPLS,GP_Gibbs,-0.05,6/6
ILSQSVLMGMHLKNSVA,QASTRFS,QQYHRLPLM,En_HC,2.08,5/6
MISDLTYLGLRNVNSVA,DLSTRGN,QQYDRLPLS,En_HC,1.45,6/6
KISQSWGYESRNSNSVA,EASTRED,QDYHRLPLS,GP_Gibbs,0.58,6/6
KISMSINMTFQASNNVA,EMATREK,QQYHRLPLS,En_Gen,2.17,6/6
KLSQSDEYESRQKNSVA,NASTRMQ,QQYHRLPLL,GP_Gibbs,0.18,6/6
KITQLVMETSKNKNNVA,EVSTVPD,QQYHRLPLS,En_HC,0.58,6/6
KLNLREEWGTGQWQNIA,EREIAWQ,QQYQSLPLS,En_Gibbs,1.44,6/6
KIDMSLNYESVALNSIA,EEVMHTA,QQYDRLPLF,En_Gibbs,2.28,1/6
KLQQQAEMESRVKNSVA,QASTRES,QQYHRLPLS,GP_Gibbs,0.11,6/6
KLEFLHLYESRNKNSVA,QASTREM,QQYHRLPLS,GP_Gibbs,0.33,6/6
KLDLFIPSQKEWDASIA,GATLRPT,QDYARLPLS,En_Gibbs,2.14,3/6
TLYGLSNSMSKNSNNVA,EMTTREK,QQYDRLPLI,En_Gen,1.79,6/6
KLDSHEQHGTAQNSAMA,SASVSTQ,QQYSRLPLS,En_Gibbs,0.30,6/6
KVEQLVLPEDRNANSVA,NASTRED,QQYHRLPLS,GP_Gibbs,0.81,6/6
KIGMTLNQLQEKKNNVA,DLVYREN,QQYHRLPLS,En_Gen,1.63,5/6
KITDDELTEGNDRNNIA,HNNVAED,QQYQQLPLV,En_Gibbs,1.52,6/6
KLSQSVKYEDRNWNNVA,NASKRES,QAYHRLPLS,GP_Gibbs,0.69,6/6
KLSMVTGHLSMAKNNVA,EMETREK,QQYERLPLS,En_Gen,0.71,6/6

Three control strains display no target. For all light chain designs, 4% of the pairings with them gave a signal, with a median of 2.64 and one signal in twenty below 1.59, so weak values seen in few replicates may be background. A sequence measured in both rounds can read differently, since the two assays cover different ranges. The authors' rule: three or more of the six replicates give a measured affinity, fewer mean a poor binder. The parent sequence was in this pool as ten entries: three were never detected, three once, and four in most replicates, with averages from 0.34 to 2.37.